Tests used:
hepatocytes HepG2 [1] = assay: Inhibition of hepatic gluconeogenesis (glucose synthesis); conditions: known inhibitors of gluconeogenesis; concentration not given
hepatocytes HepG2 [2] = conditions: 10 µg/mL

insulin
Inhibition of glucose synthesis by hepatocytes, experimental control compounds (hepatocytes HepG2 [1]): showed inhibition of glucose synthesis
Reversal of insulin resistance of hepatocytes (hyperinsulinemia model) (hepatocytes HepG2 [2]): reversed

— paper PMC10892041, “Vanadium Complexes with Thioanilide Derivatives of Amino Acids: Inhibition of Human Phosphatases and Specificity in Various Cell Models of Metabolic Disturbances” (Pharmaceuticals, 2024)
